Antibody variant affinities, Ab-14 light chain, assay B

All variants were tested on one target, the spike HR2 peptide PDVDLGDISGINAS (SARS-CoV-2).

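The starting antibody came from a phage panning campaign against this peptide. The variants were designed computationally from a first round of random CDR variants and then made and measured. Their group label is 14L_GP_Gibbs (GP: Gaussian process model; Gibbs: Gibbs sampling; a sequence that several methods proposed may carry one label only). The assay is AlphaSeq: two haploid yeast populations carry antibody and antigen on their surface. Binding brings cells together so that they mate, and sequencing counts the barcode pairs among the diploids. Each replicate has its own calibration line, from reference interactions of the BCL2 family. Each pool was mated in six replicate cultures.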

The variants keep the heavy chain, the linker and the frameworks of Ab-14 (scFv order VH, a 15-residue (Gly4Ser)3 linker, VL).
VH: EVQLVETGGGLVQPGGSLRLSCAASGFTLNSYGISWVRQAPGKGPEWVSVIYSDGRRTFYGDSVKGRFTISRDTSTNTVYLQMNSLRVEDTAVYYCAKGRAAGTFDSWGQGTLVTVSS
VL: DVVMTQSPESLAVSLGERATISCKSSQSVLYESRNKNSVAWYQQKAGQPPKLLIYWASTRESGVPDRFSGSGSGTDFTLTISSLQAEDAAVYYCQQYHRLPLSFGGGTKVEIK

Each variant's VL is given in full. Numbers give log10(Kd / nM), so 0 is 1 nM and 3 is 1 µM. Smaller is tighter. The authors averaged sequences with at least three values out of six and counted those with two or fewer as poor binders. The parent sequence was in this pool as ten entries: three were never detected, three once, and four in most replicates, with averages from 0.34 to 2.37. Background: pairings of all light chain designs with three empty control strains gave a value in 4% of cases (median 2.64, 5th percentile 1.59). Values in that range, when seen in few replicates, are hard to tell from nonspecific mating. For each scFv, signals with the empty controls are counted beside the result, with their mean in brackets. Values of this round are not directly comparable with the first-round values of the same sequences.

VL,"replicates, log10 nM",control signals
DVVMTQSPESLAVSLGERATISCKLSQSMLYEQRNKNSVAWYQQKAGQPPKLLIYNASLRESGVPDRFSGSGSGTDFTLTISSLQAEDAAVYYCQCYHRLPLSFGGGTKVEIK,2.48 0.24 0.65 0.09 0.61 0.51,0/18
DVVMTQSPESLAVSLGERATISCKLQQFAEYESRWKNSVAWYQQKAGQPPKLLIYHASTRLSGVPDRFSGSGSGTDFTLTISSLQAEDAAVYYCQQYHRLPLSFGGGTKVEIK,0.85 0.59 0.68 0.87 0.68 1.55,2/18 (2.77)
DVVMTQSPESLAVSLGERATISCKMSPSELYQDRNFNAVAWYQQKAGQPPKLLIYQASQRESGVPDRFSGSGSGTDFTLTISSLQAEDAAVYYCQQYHRLPLSFGGGTKVEIK,1.29 1.23 0.98 0.82 0.78 0.95,1/18 (1.39)
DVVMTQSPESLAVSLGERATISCKSQISQWYEDRNKNSVAWYQQKAGQPPKLLIYSASTREHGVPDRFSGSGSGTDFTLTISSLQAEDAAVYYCQQYHRLPLSFGGGTKVEIK,0.33 0.26 0.09 0.03 0.23 0.30,1/18 (2.64)
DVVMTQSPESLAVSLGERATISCKVSQSKLYESRQKNSVAWYQQKAGQPPKLLIYHASQRELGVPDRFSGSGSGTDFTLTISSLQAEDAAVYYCQQYHRLPLSFGGGTKVEIK,0.28 0.35 0.27 0.22 0.05 0.38,1/18 (2.59)
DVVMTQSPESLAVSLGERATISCKYSQEVMEESRNKNSVAWYQQKAGQPPKLLIYNASTREEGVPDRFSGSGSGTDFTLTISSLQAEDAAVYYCQQYHRLPLSFGGGTKVEIK,-0.11 -0.26 -0.05 -0.36 -0.27 0.25,0/18
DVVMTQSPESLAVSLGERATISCKCQQSQLYESRNKNAVAWYQQKAGQPPKLLIYNASLREDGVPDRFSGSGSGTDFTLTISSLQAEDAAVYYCQQYHRLPLSFGGGTKVEIK,0.82 0.72 0.68 0.22 0.47 0.52,1/18 (1.82)
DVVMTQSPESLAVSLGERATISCKHQQSELYEERNDNSVAWYQQKAGQPPKLLIYQASQRESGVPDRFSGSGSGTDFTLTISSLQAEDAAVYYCQDYHRLPLSFGGGTKVEIK,1.30 0.67 0.74 0.83 0.71 0.85,1/18 (2.53)
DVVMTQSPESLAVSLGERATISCKLSQSWLYQSRNSNAVAWYQQKAGQPPKLLIYEASQREQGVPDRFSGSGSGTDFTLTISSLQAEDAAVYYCQQYHRLPLSFGGGTKVEIK,0.17 0.30 0.15 0.06 0.06 0.02,0/18
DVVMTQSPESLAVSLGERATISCKLQQSVGYESRNQNAVAWYQQKAGQPPKLLIYEASTREEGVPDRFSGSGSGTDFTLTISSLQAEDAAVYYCQQYHRLPLSFGGGTKVEIK,0.80 0.61 0.34 0.42 0.58 0.70,2/18 (2.36)
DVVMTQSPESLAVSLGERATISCKVSWEDLLQSRNWNQVAWYQQKAGQPPKLLIYEASTRESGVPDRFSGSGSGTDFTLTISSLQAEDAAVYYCQQYHRLPLSFGGGTKVEIK,0.53 0.62 0.27 0.31 0.33 0.49,1/18 (2.82)
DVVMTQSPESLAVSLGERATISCKVQQSGCMLSRNKNSVAWYQQKAGQPPKLLIYHASTRESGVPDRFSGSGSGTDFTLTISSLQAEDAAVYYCQQYHRLPLSFGGGTKVEIK,0.55 0.80 0.30 0.81 0.70 0.50,3/18 (3.43)
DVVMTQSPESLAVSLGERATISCKVEQGVLDESRNKNSVAWYQQKAGQPPKLLIYWASTRESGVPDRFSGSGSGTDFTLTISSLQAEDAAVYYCQQYHRLPLSFGGGTKVEIK,0.76 1.04 0.63 0.90 0.85 0.66,0/18
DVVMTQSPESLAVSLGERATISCKISQSVLYESRNQNAVAWYQQKAGQPPKLLIYEASTRCDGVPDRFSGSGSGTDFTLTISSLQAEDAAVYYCQQYHRLPLSFGGGTKVEIK,-0.21 -0.20 -0.43 -0.51 -0.40 -0.31,3/18 (3.23)
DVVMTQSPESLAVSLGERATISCKFMQSVLYESRNLNNVAWYQQKAGQPPKLLIYHGSTRESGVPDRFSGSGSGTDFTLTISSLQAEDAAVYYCQQYHRLPLSFGGGTKVEIK,-0.08 -0.22 -0.34 -0.26 -0.45 -0.28,2/18 (3.08)
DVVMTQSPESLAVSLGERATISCKMSQSQLYEWRNKNSVAWYQQKAGQPPKLLIYNASTRESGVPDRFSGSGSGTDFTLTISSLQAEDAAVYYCQQYHRLPLTFGGGTKVEIK,-0.11 -0.03 -0.22 -0.21 -0.26 -0.07,1/18 (2.55)
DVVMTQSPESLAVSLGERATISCKFMQSWLYESRNKNSVAWYQQKAGQPPKLLIYNASQREHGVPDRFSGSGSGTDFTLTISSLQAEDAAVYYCQQYHRLPLSFGGGTKVEIK,0.25 0.19 0.06 0.04 -0.04 0.23,2/18 (3.22)
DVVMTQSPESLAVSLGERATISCKLSQMVDYESRNKNNVAWYQQKAGQPPKLLIYEASTRMSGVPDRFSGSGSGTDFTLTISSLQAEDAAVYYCQQYHRLPLSFGGGTKVEIK,0.40 0.28 0.17 0.19 0.31 0.56,1/18 (0.77)
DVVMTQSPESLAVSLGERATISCKSSQSYDYGDRNSNSVAWYQQKAGQPPKLLIYNASQREHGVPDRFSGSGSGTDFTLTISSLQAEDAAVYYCQQYHRLPLSFGGGTKVEIK,0.37 0.48 0.16 0.13 -0.03 0.41,2/18 (2.61)
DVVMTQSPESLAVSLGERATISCKLSMLGLYGQRNKNSVAWYQQKAGQPPKLLIYDASTREDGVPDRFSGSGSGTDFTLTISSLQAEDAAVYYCQQYHRLPLSFGGGTKVEIK,-0.27 -0.43 -0.37 -0.75 -0.32 -0.49,0/18
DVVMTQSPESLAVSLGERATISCKSSQSELYESAAKNSVAWYQQKAGQPPKLLIYNAMQRMSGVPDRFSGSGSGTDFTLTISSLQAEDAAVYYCQQYHRLPLSFGGGTKVEIK,0.78 0.51 1.01 0.32 0.35 0.61,0/18
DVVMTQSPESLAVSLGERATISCKVSMLGLYGQRNKNSVAWYQQKAGQPPKLLIYEASTRESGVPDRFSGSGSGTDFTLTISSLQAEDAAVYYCQQYHRLPLSFGGGTKVEIK,-0.23 -0.42 -0.37 -0.32 -0.44 -0.15,1/18 (2.19)

The last 3 entries again:

VL,"replicates, log10 nM",control signals
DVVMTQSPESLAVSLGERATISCKLSMLGLYGQRNKNSVAWYQQKAGQPPKLLIYDASTREDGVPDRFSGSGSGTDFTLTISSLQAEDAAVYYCQQYHRLPLSFGGGTKVEIK,-0.27 -0.43 -0.37 -0.75 -0.32 -0.49,0/18
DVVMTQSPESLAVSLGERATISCKSSQSELYESAAKNSVAWYQQKAGQPPKLLIYNAMQRMSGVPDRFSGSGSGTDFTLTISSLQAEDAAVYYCQQYHRLPLSFGGGTKVEIK,0.78 0.51 1.01 0.32 0.35 0.61,0/18
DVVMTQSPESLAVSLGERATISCKVSMLGLYGQRNKNSVAWYQQKAGQPPKLLIYEASTRESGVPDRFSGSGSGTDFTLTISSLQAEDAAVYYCQQYHRLPLSFGGGTKVEIK,-0.23 -0.42 -0.37 -0.32 -0.44 -0.15,1/18 (2.19)

From the AlphaSeq antibody data of Li et al. 2023 (doi:10.1038/s41467-023-39022-2), copy in the FLAb collection.